## AlphaSeq binding of Ab-14 heavy chain variants to a spike HR2 peptide

All variants were tested on one target, the spike HR2 peptide PDVDLGDISGINAS (SARS-CoV-2).

Parent scFv Ab-14: VH joined to VL by a (GGGGS)3 linker. Changes lie in the heavy chain CDRs alone.
VH: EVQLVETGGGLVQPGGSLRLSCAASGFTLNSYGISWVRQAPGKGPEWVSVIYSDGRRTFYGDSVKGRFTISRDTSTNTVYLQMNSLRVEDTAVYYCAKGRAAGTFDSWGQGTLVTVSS
VL: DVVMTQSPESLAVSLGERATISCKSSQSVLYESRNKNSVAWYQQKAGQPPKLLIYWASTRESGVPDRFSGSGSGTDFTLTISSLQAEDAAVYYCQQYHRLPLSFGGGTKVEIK

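The starting antibody came from a phage panning campaign against this peptide. In library AAYL49, one, two or three CDR residues were substituted; doubles and triples were drawn at random. AlphaSeq pools MATa yeast showing the antibodies with MATalpha yeast showing the peptide. The frequency of each diploid, read from paired DNA barcodes, reflects how well the two displayed proteins bind. Read counts were normalised to the haploid input and turned into Kd by a linear fit to BCL2-family pairs of known affinity, for each replicate. The assay was run in three technical replicates.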

Positions count from residue 1 of the parent VH; G99D puts D in place of G.
Each Kd is an estimate from the mating assay, the geometric mean of the replicates in which the pair was seen; lower is stronger.
A pair that was not seen in any replicate is written "nd"; this usually means weak binding, but a binder can also be missed.
Nonspecific signal, from three strains lacking the peptide, appeared in 15% of pairings of library AAYL49, centred on 11 µM (5% of these signals below 680 nM); values are not corrected for it. For each scFv, signals with the empty controls are counted beside the result.

changes	apparent Kd	replicates with signal	signal with controls
G99D+G103W	nd	0/3	0/9
Y52K+G103L	nd	0/3	1/9
I34L+S63R+S107A	25 µM	1/3	0/9
T58A+D62R+T104D	nd	0/3	0/9
F59W+G103V	2.6 nM	3/3	0/9
S31G+Y60M+F105C	490 nM	1/3	0/9
G33Y+V64R+F105P	1.5 µM	1/3	1/9
T28Y+A102R+D106M	nd	0/3	1/9
I34T+T58P+S107N	nd	0/3	0/9
Y32S+A101M+S107A	13 µM	3/3	2/9
Y52M+R100M+A101F	30 µM	1/3	3/9
L29V+K65V+G103Q	6.7 µM	1/3	1/9
S31V+S35G+S53N	nd	0/3	0/9
G33S+I34M+F59P	nd	0/3	2/9
S31P+I34S+D54P	nd	0/3	1/9
S63Q+K65S+T104K	nd	0/3	0/9
I51D+R56Q+T58K	nd	0/3	0/9
N30T+Y32R+A101W	12 µM	2/3	2/9
T28I+I34C+G55Y	nd	0/3	0/9
I34W+D54S+T58N	4.7 µM	1/3	0/9
K65E+A102E+T104D	150 nM	3/3	0/9
S35T+F59E+G103I	14 µM	1/3	4/9
R57A+G99P+D106H	nd	0/3	0/9
F105M+S107M	6.3 µM	3/3	3/9
G61I+D62K+S63K	nd	0/3	1/9
Y52F+A102N+T104F	3.0 µM	1/3	0/9
F27C+V64G+G99L	440 nM	1/3	0/9
I34Y+Y52D+S53L	nd	0/3	1/9
V50P+V64K+G99H	28 µM	2/3	7/9
N30V+R100A	nd	0/3	0/9
Y52S+G99V	nd	0/3	0/9
I34V+V64D+T104S	nd	0/3	1/9
T28M+Y32W+I51L	nd	0/3	1/9
A101F+T104A	nd	0/3	0/9
V50S+G55I+F105C	nd	0/3	1/9
S35G+R57C+V64K	nd	0/3	0/9
I34D+G61C+T104Q	nd	0/3	1/9
Y32M+V50W+V64N	1.3 mM	1/3	4/9
G33D+T58L+Y60R	32 µM	1/3	2/9
Y32D+G33A+V50Q	17 µM	1/3	1/9
G55H+G99P+D106K	nd	0/3	1/9
T28G+Y60V+K65A	1.8 µM	3/3	4/9
Y32H+Y52V+S53N	1.2 µM	1/3	2/9
N30Y+I34T+D54F	nd	0/3	0/9
G26I+V50T+D54F	2.2 µM	1/3	1/9
Y32S+G103Q+D106A	8.7 µM	1/3	0/9
Y32M+S63K+S107R	nd	0/3	2/9
Y52D+T58I+K65R	79 µM	1/3	0/9
G55W+G61C+S63Y	nd	0/3	0/9
F27A+S31W+G103P	nd	0/3	2/9
L29V+G61P+V64H	nd	0/3	0/9

The closing 4 entries, repeated:

changes	apparent Kd	replicates with signal	signal with controls
Y52D+T58I+K65R	79 µM	1/3	0/9
G55W+G61C+S63Y	nd	0/3	0/9
F27A+S31W+G103P	nd	0/3	2/9
L29V+G61P+V64H	nd	0/3	0/9

Reference: Engelhart et al. 2022, doi:10.1038/s41597-022-01779-4. File: FLAb, binding data.